Laboratory results reported in the supplement of paper PMC5998384.

Assays:
[1] = system: HeLa Kyoto; assay: solubility in G1/S (NP-40 vs SDS abundance) (log2 ratio); higher = more soluble; details: cell cycle stage: G1/S
[2] = system: HeLa Kyoto; assay: thermal stability score vs G1/S (z-score of summed log2 fold changes over temperatures); higher = more thermally stable than in G1/S
[3] = system: HeLa Kyoto; assay: solubility change mitosis vs G1/S (difference of NP-40 vs SDS log2 ratios) (log2 ratio difference); higher = more soluble in mitosis
[4] = system: HeLa Kyoto; assay: melting temperature (median over replicates), in situ; higher = more thermally stable
[5] = cell cycle stage: early G1 (4.5 h after nocodazole release)
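Wherever melting temperature (median over replicates), in situ is given: HeLa Kyoto cells synchronized by double thymidine or nocodazole block, proteins quantified by TMT10plex mass spectrometry, three independent biological replicates.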
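Wherever solubility change mitosis vs G1/S (difference of NP-40 vs SDS log2 ratios) is given: synchronized HeLa Kyoto cells (double thymidine block for G1/S, nocodazole release for mitosis), protein amounts in NP-40 versus SDS lysates quantified by mass spectrometry, three biological replicates.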
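Wherever solubility in G1/S (NP-40 vs SDS abundance) is given: HeLa Kyoto cells arrested at G1/S by double thymidine block, proteins quantified by TMT10plex mass spectrometry in mild NP-40 versus SDS extracts, three biological replicates.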
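Wherever thermal stability score vs G1/S (z-score of summed log2 fold changes over temperatures) is given: synchronized HeLa Kyoto cells, proteins quantified by TMT10plex mass spectrometry, three biological replicates, mitosis taken 0.5 h after nocodazole release, G1/S directly after double thymidine block.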

Substance | solubility in G1/S (log2) [1] | thermal stability score [2, 5] | thermal stability score ([2]; cell cycle stage: mitosis) | solubility change mitosis (log2) [3] | melting temperature ([4]; cell cycle stage: G1/S) [°C] | melting temperature ([4]; cell cycle stage: mitosis) [°C]
CUL3 (sequence left out) | -0.0642 | -0.45 | -1.27 | -0.0896 | 54.8 | 53.8
MAAAAAMAEQESARNGGRNRGGVQRVEGKLRASVEKGDYYEAHQMYRTLFFRYMSQSKHTEARELMYSGALLFFSHGQQNSAADLSMLVLESLEKAEVEVADELLENLAKVFSLMDPNSPERVTFVSRALKWSSGGSGKLGHPRLHQLLALTLWKEQNYCESRYHFLHSADGEGCANMLVEYSTSRGFRSEVDMFVAQAVLQFLCLKNKSSASVVFTTYTQKHPSIEDGPPFVEPLLNFIWFLLLAVDGGKLTVFTVLCEQYQPSLRRDPMYNEYLDRIGQLFFGVPPKQTSSYGGLLGNLLTSLMGSSEQEDGEESPSDGSPIELD [GET4] | 0.123 | 0.593 | 1.06 | -0.166 | 50.7 | 49.8
MAAAEEEDGGPEGPNRERGGAGATFECNICLETAREAVVSVCGHLYCWPCLHQWLETRPERQECPVCKAGISREKVVPLYGRGSQKPQDPRLKTPPRPQGQRPAPESRGGFQPFGDTGGFHFSFGVGAFPFGFFTTVFNAHEPFRRGTGVDLGQGHPASSWQDSLFLFLAIFFFFWLLSI [RNF5] | 0.229 |  |  | -0.128 | 52.9 | 52
MAAPLLHTRLPGDAAASSSAVKKLGASRTGISNMRALENDFFNSPPRKTVRFGGTVTEVLLKYKKGETNDFELLKNQLLDPDIKDDQIINWLLEFRSSIMYLTKDFEQLISIILRLPWLNRSQTVVEEYLAFLGNLVSAQTVFLRPCLSMIASHFVPPRVIIKEGDVDVSDSDDEDDNLPANFDTCHRALQIIARYVPSTPWFLMPILVEKFPFVRKSERTLECYVHNLLRISVYFPTLRHEILELIIEKLLKLDVNASRQGIEDAEETATQTCGGTDSTEGLFNMDEDEETEHETKAGPERLDQMVHPVAERLDILMSLVLSYMKDVCYVDGKVDNGKTKDLYRDLINIFDKLLLPTHASCHVQFFMFYLCSFKLGFAEAFLEHLWKKLQDPSNPAIIRQAAGNYIGSFLARAKFIPLITVKSCLDLLVNWLHIYLNNQDSGTKAFCDVALHGPFYSACQAVFYTFVFRHKQLLSGNLKEGLQYLQSLNFERIVMSQLNPLKICLPSVVNFFAAITNKYQLVFCYTIIERNNRQMLPVIRSTAGGDSVQICTNPLDTFFPFDPCVLKRSKKFIDPIYQVWEDMSAEELQEFKKPMKKDIVEDEDDDFLKGEVPQNDTVIGITPSSFDTHFRSPSSSVGSPPVLYMQPSPL [RRN3] | -0.182 | -1.36 | 1.91 | 0.109 | 51.5 | 52
MAAQALALLREVARLEAPLEELRALHSVLQAVPLNELRQQAAELRLGPLFSLLNENHREKTTLCVSILERLLQAMEPVHVARNLRVDLQRGLIHPDDSVKILTLSQIGRIVENSDAVTEILNNAELLKQIVYCIGGENLSVAKAAIKSLSRISLTQAGLEALFESNLLDDLKSVMKTNDIVRYRVYELIIEISSVSPESLNYCTTSGLVTQLLRELTGEDVLVRATCIEMVTSLAYTHHGRQYLAQEGVIDQISNIIVGADSDPFSSFYLPGFVKFFGNLAVMDSPQQICERYPIFVEKVFEMIESQDPTMIGVAVDTVGILGSNVEGKQVLQKTGTRFERLLMRIGHQSKNAPVELKIRCLDAISSLLYLPPEQQTDDLLRMTESWFSSLSRDPLELFRGISSQPFPELHCAALKVFTAIANQPWAQKLMFNSPGFVEYVVDRSVEHDKASKDAKYELVKALANSKTIAEIFGNPNYLRLRTYLSEGPYYVKPVSTTAVEGAE [PSMD5] | 0.0767 | 0.755 | 1.31 | -0.147 | 52.3 | 51.1
MAEASPHPGRYFCHCCSVEIVPRLPDYICPRCESGFIEELPEETRSTENGSAPSTAPTDQSRPPLEHVDQHLFTLPQGYGQFAFGIFDDSFEIPTFPPGAQADDGRDPESRRERDHPSRHRYGARQPRARLTTRRATGRHEGVPTLEGIIQQLVNGIITPATIPSLGPWGVLHSNPMDYAWGANGLDAIITQLLNQFENTGPPPADKEKIQALPTVPVTEEHVGSGLECPVCKDDYALGERVRQLPCNHLFHDGCIVPWLEQHDSCPVCRKSLTGQNTATNPPGLTGVSFSSSSSSSSSSSPSNENATSNS [RNF126] |  | -1.11 | -0.316 |  |  | 
MAKERCLKKSFQDSLEDIKKRMKEKRNKNLAEIGKRRSFIAAPCQIITNTSTLLKNYQDNNKMLVLALENEKSKVKEAQDIILQLRKECYYLTCQLYALKGKLTSQQTVEPAQNQEICSSGMDPNSDDSSRNLFVKDLPQIPLEETELPGQGESFQIEDQIPTIPQDTLGVDFDSGEAKSTDNVLPRTVSVRSSLKKHCNSICQFDSLDDFETSHLAGKSFEFERVGFLDPLVNMHIPENVQHNACQWSKDQVNLSPKLIQPGTFTKTKEDILESKSEQTKSKQRDTQERKREEKRKANRRKSKRMSKYKENKSENKKTVPQKKMHKSVSSNDAYNFNLEEGVHLTPFRQKVSNDSNREENNESEVSLCESSGSGDDSDDLYLPTCKYIQNPTSNSDRPVTRPLAKRALKYTDEKETEGSKPTKTPTTTPPETQQSPHLSLKDITNVSLYPVVKIRRLSLSPKKNKASPAVALPKRRCTASVNYKEPTLASKLRRGDPFTDLCFLNSPIFKQKKDLRRSKKRALEVSPAKEAIFILYYVREFVSRFPDCRKCKLETHICLR [SGOL1] | -0.682 |  |  | 0.46 |  | 
MAMAMSDSGASRLRRQLESGGFEARLYVKQLSQQSDGDRDLQEHRQRIQALAEETAQNLKRNVYQNYRQFIETAREISYLESEMYQLSHLLTEQKSSLESIPLTLLPAAAAAGAAAASGGEEGVGGAGGRDHLRGQAGFFSTPGGASRDGSGPGEEGKQRTLTTLLEKVEGCRHLLETPGQYLVYNGDLVEYDADHMAQLQRVHGFLMNDCLLVATWLPQRRGMYRYNALYSLDGLAVVNVKDNPPMKDMFKLLMFPESRIFQAENAKIKREWLEVLEDTKRALSEKRRREQEEAAAPRGPPQVTSKATNPFEDDEEEEPAVPEVEEEKVDLSMEWIQELPEDLDVCIAQRDFEGAVDLLDKLNHYLEDKPSPPPVKELRAKVEERVRQLTEVLVFELSPDRSLRGGPKATRRAVSQLIRLGQCTKACELFLRNRAAAVHTAIRQLRIEGATLLYIHKLCHVFFTSLLETAREFEIDFAGTDSGCYSAFVVWARSAMGMFVDAFSKQVFDSKESLSTAAECVKVAKEHCQQLGDIGLDLTFIIHALLVKDIQGALHSYKEIIIEATKHRNSEEMWRRMNLMTPEALGKLKEEMKSCGVSNFEQYTGDDCWVNLSYTVVAFTKQTMGFLEEALKLYFPELHMVLLESLVEIILVAVQHVDYSLRCEQDPEKKAFIRQNASFLYETVLPVVEKRFEEGVGKPAKQLQDLRNASRLIRVNPESTTSVV [EXOC8] | 0.00864 | 0.41 | 0.98 | -0.108 | 49.9 | 48.9
MAMESTATAAVAAELVSADKIEDVPAPSTSADKVESLDVDSEAKKLLGLGQKHLVMGDIPAAVNAFQEAASLLGKKYGETANECGEAFFFYGKSLLELARMENGVLGNALEGVHVEEEEGEKTEDESLVENNDNIDEEAREELREQVYDAMGEKEEAKKTEDKSLAKPETDKEQDSEMEKGGREDMDISKSAEEPQEKVDLTLDWLTETSEEAKGGAAPEGPNEAEVTSGKPEQEVPDAEEEKSVSGTDVQEECREKGGQEKQGEVIVSIEEKPKEVSEEQPVVTLEKQGTAVEVEAESLDPTVKPVDVGGDEPEEKVVTSENEAGKAVLEQLVGQEVPPAEESPEVTTEAAEASAVEAGSEVSEKPGQEAPVLPKDGAVNGPSVVGDQTPIEPQTSIERLTETKDGSGLEEKVRAKLVPSQEETKLSVEESEAAGDGVDTKVAQGATEKSPEDKVQIAANEETQEREEQMKEGEETEGSEEDDKENDKTEEMPNDSVLENKSLQENEEEEIGNLELAWDMLDLAKIIFKRQETKEAQLYAAQAHLKLGEVSVESENYVQAVEEFQSCLNLQEQYLEAHDRLLAETHYQLGLAYGYNSQYDEAVAQFSKSIEVIENRMAVLNEQVKEAEGSSAEYKKEIEELKELLPEIREKIEDAKESQRSGNVAELA[skipping about 120 residues] [NASP] | 0.232 | -1.08 | 1.21 | -0.051 | 51.3 | 52.4
MAPQKHGGGGGGGSGPSAGSGGGGFGGSAAVAAATASGGKSGGGSCGGGGSYSASSSSSAAAAAGAAVLPVKKPKMEHVQADHELFLQAFEKPTQIYRFLRTRNLIAPIFLHRTLTYMSHRNSRTNIKRKTFKVDDMLSKVEKMKGEQESHSLSAHLQLTFTGFFHKNDKPSPNSENEQNSVTLEVLLVKVCHKKRKDVSCPIRQVPTGKKQVPLNPDLNQTKPGNFPSLAVSSNEFEPSNSHMVKSYSLLFRVTRPGRREFNGMINGETNENIDVNEELPARRKRNREDGEKTFVAQMTVFDKNRRLQLLDGEYEVAMQEMEECPISKKRATWETILDGKRLPPFETFSQGPTLQFTLRWTGETNDKSTAPIAKPLATRNSESLHQENKPGSVKPTQTIAVKESLTTDLQTRKEKDTPNENRQKLRIFYQFLYNNNTRQQTEARDDLHCPWCTLNCRKLYSLLKHLKLCHSRFIFNYVYHPKGARIDVSINECYDGSYAGNPQDIHRQPGFAFSRNGPVKRTPITHILVCRPKRTKASMSEFLESEDGEVEQQRTYSSGHNRLYFHSDTCLPLRPQEMEVDSEDEKDPEWLREKTITQIEEFSDVNEGEKEVMKLWNLHVMKHGFIADNQMNHACMLFVENYGQKIIKKNLCRNFMLHLVSMHDFNLISIMSIDKAVTKLREMQQKLEKGESASPANEEITEEQNGTANGFSEINSKEKALETDSVSGVSKQSKKQKL [SUZ12] | -0.452 | 1.55 | 3.9 | 0.22 | 48.2 | 50.1
MEEQPQMQDADEPADSGGEGRAGGPPQVAGAQAACSEDRMTLLLRLRAQTKQQLLEYKSMVDASEEKTPEQIMQEKQIEAKIEDLENEIEEVKVAFEIKKLALDRMRLSTALKKNLEKISRQSSVLMDNMKHLLELNKLIMKSQQESWDLEEKLLDIRKKRLQLKQASESKLLEIQTEKNKQKIDLDSMENSERIKIIRQNLQMEIKITTVIQHVFQNLILGSKVNWAEDPALKEIVLQLEKNVDMM [CENPH] | -0.161 |  |  | 0.656 |  | 
MSVLRPLDKLPGLNTATILLVGTEDALLQQLADSMLKEDCASELKVHLAKSLPLPSSVNRPRIDLIVFVVNLHSKYSLQNTEESLRHVDASFFLGKVCFLATGAGRESHCSIHRHTVVKLAHTYQSPLLYCDLEVEGFRATMAQRLVRVLQICAGHVPGVSALNLLSLLRSSEGPSLEDL [CENPM] | 0.195 |  |  | -0.14 |  | 
